2 molecules from PMC9779714, “Enhanced Therapeutic Effect of Optimized Melittin-dKLA, a Peptide Agent Targeting M2-like Tumor-Associated Macrophages in Triple-Negative Breast Cancer” (International Journal of Molecular Sciences, 2022) can be followed below.

One data set relates to red blood cells. As to the kind of experiment: Hemolysis assay on mouse red blood cells. The class given is cell-based, BALB/c mouse. The following applies: mouse red blood cells in PBS, peptides 1-40 μM, 4 h at 37 °C, OD 450 nm of supernatant, 2% Triton X-100 positive control, mean of n = 3. The method, then:
Melittin has been well-documented to have strong hemolytic effects. To diminish such adverse effects, several truncated melittin were synthesized and analyzed in vitro (Figure 2A). Mouse blood cells were treated with varying concentrations of peptides for 4 h, and the optical density was measured using a microplate reader.
Figure 2 Melittin fragments have fewer hemolytic effects than melittin. (A) Amino acid sequence of melittin and melittin-truncated peptide. (B) Hemolysis of red blood cells treated with FITC-conjugated melittin or FITC-conjugated melittin fragments at concentrations ranging from 1 μM to 40 μM and incubated at 37 °C for 4 h. […] The optical density of hemoglobin released supernatant was measured at 450 nm. […]
(§1) Figure 4 Characterization of the optimized hybrid peptide drug, PEG-melittin-dKLA 8-26. […] The optical density was measured at 490 nm. […] The optical density of hemoglobin released in the supernatant was measured at 450 nm. […]
Blood was collected from each BALB/c mouse. […] The optical density of the samples was measured at 450 nm using a microplate reader (Molecular Devices). The percentage of hemolysis was calculated using the following equation: hemolysis (%) = (OD450 nm sample − OD450 nm negative control)/(OD450 nm positive control − OD450 nm negative control) × 100%. All data are expressed as the mean ± SEM of three independent experiments.

For data set [1], the system named is THP-1-derived M0 macrophages. As to the kind of experiment: MTS assay in M0 macrophages. The class given is cell-based, human. The note with it: 0-20 μM, 20 h at 37 °C in serum-free RPMI, OD 490 nm, two independent experiments. The method, then:
(§2) The optimized peptide fragment melittin 8-26 was used as a vehicle for targeting M2 macrophages, and the pro-apoptotic peptide d(KLAKLAK)2 (dKLA) was conjugated to the C-terminus of the peptide to test its cytotoxic effects on M2 macrophages. […] Next, to ascertain the loss of hemolytic effects of the optimized peptide, melittin-dKLA 8-26 was tested using an in vitro hemolysis assay. […] However, there were no hemolytic effects of melittin-dKLA 8-26 at the tested concentration of up to 40 μM (Figure 4B). […] Additionally, peptide drugs have the disadvantage of being easily decomposed in the body. Peptide drugs are stabilized using various methods, such as PEGylation. […]
as §1
(§3) THP-1 cells were seeded at a density of 2 × 10^4 cells/well in a 96-well plate and polarized into M0, M1, and M2 macrophages for 24 h in the same RPMI medium composition and cytokine concentration as described for macrophage polarization. […] The absorbance was measured at 490 nm using a microplate reader (Molecular Devices, San Jose, CA, USA). All data are expressed as the mean ± SEM of two independent experiments.

The test system of data set [2] is THP-1-derived M1 macrophages. In words: MTS assay in M1 macrophages. It counts as cell-based, human. The note with it: 0-20 μM, 20 h at 37 °C in serum-free RPMI, OD 490 nm, two independent experiments. On the procedure: as §2, §1, §3
A general note: Tetrazolium assays rely on reduction of a dye to a coloured formazan, in cell work by metabolically active cells.

The test system of data set [3] is THP-1-derived M2 macrophages. As to the kind of experiment: MTS assay in M2 macrophages. It counts as cell-based, human. The note with it: 0-20 μM, 20 h at 37 °C in serum-free RPMI, OD 490 nm, two independent experiments. The method, then: as §2, §1, §3

As for `CC[C@H](C)[C@H](NC(=O)CN)C(=O)NCC(=O)N[C@@H](C)C(=O)N[C@H](C(=O)N[C@@H](CC(C)C)C(=O)N[C@@H](CCCCN)C(=O)N[C@H](C(=O)N[C@@H](CC(C)C)C(=O)N[C@H](C(=O)N[C@H](C(=O)NCC(=O)N[C@@H](CC(C)C)C(=O)N1CCC[C@H]1C(=O)N[C@@H](C)C(=O)N[C@@H](CC(C)C)C(=O)N[C@H](C(=O)N[C@@H](CO)C(=O)N[C@@H](Cc1c[nH]c2ccccc12)C(=O)N[C@H](C(=O)N[C@@H](CCCCN)C(=O)N[C@@H](CCCNC(=N)N)C(=O)N[C@@H](CCCCN)C(=O)N[C@@H](CCCNC(=N)N)C(=O)N[C@@H](CCC(N)=O)C(=O)N[C@@H](CCC(N)=O)C(=O)NCC(=O)NCC(=O)NCC(=O)NCC(=O)N[C@@H](CO)C(=O)N[C@H](CCCCN)C(=O)N[C@H](CC(C)C)C(=O)N[C@H](C)C(=O)N[C@H](CCCCN)C(=O)N[C@H](CC(C)C)C(=O)N[C@H](C)C(=O)N[C@H](CCCCN)C(=O)N[C@H](CCCCN)C(=O)N[C@H](CC(C)C)C(=O)N[C@H](C)C(=O)N[C@H](CCCCN)C(=O)N[C@H](CC(C)C)C(=O)N[C@H](C)C(=O)N[C@H](CCCCN)C(=O)O)[C@@H](C)CC)[C@@H](C)CC)[C@@H](C)O)[C@@H](C)O)C(C)C)C(C)C` [melittin-dKLA], in the data set on red blood cells, the “concentration at which hemolysis was observed” value is 5 µM. Moreover, the IC50 stood at 1230 nM in data set [1], 737 nM in data set [2] and 415 nM in data set [3].

Regarding `CC[C@H](C)[C@H](NC(=O)[C@H](CC(C)C)NC(=O)[C@H](C)NC(=O)[C@@H]1CCCN1C(=O)[C@H](CC(C)C)NC(=O)CNC(=O)[C@@H](NC(=O)[C@@H](NC(=O)[C@H](CC(C)C)NC(=O)[C@@H](N)C(C)C)[C@@H](C)O)[C@@H](C)O)C(=O)N[C@@H](CO)C(=O)N[C@@H](Cc1c[nH]c2ccccc12)C(=O)N[C@H](C(=O)N[C@@H](CCCCN)C(=O)N[C@@H](CCCNC(=N)N)C(=O)N[C@@H](CCCCN)C(=O)N[C@@H](CCCNC(=N)N)C(=O)N[C@@H](CCC(N)=O)C(=O)N[C@@H](CCC(N)=O)C(=O)NCC(=O)NCC(=O)NCC(=O)NCC(=O)N[C@@H](CO)C(=O)N[C@H](CCCCN)C(=O)N[C@H](CC(C)C)C(=O)N[C@H](C)C(=O)N[C@H](CCCCN)C(=O)N[C@H](CC(C)C)C(=O)N[C@H](C)C(=O)N[C@H](CCCCN)C(=O)N[C@H](CCCCN)C(=O)N[C@H](CC(C)C)C(=O)N[C@H](C)C(=O)N[C@H](CCCCN)C(=O)N[C@H](CC(C)C)C(=O)N[C@H](C)C(=O)N[C@H](CCCCN)C(=O)O)[C@@H](C)CC` [melittin-dKLA 8-26], the “concentration at which hemolysis was observed” value in the data set on red blood cells was more than 40 µM. Also, the IC50 came to 4120 nM in data set [1], 2180 nM in data set [2] and 1450 nM in data set [3].

A word on the IC50: it is the concentration that inhibits the measured activity by half. A low value points to inhibition by little substance.
